Values quoted from earlier work, collected in publication PMC5201133 (Journal of medicinal chemistry, 2016).

Target: A3AR
Conditions: read-out: A3AR Ki; rat (r); archival data ref 22, 24–27; cited from earlier work

Which Ki does the source give for `Nc1ncnc2c1ncn2[C@@H]1O[C@H](C(=O)NC2CC2)[C@@H](O)[C@H]1O` [compound 9, reference compound] here?
The Ki was 1600 nM.
